In patent US7713994B2 (Wyeth LLC, priority 2005, dated 2010):
Like-named read-outs stand apart in the source and are kept apart here.

Chains of the proteins cited; added tags and fusions are not shown.
UniProt P11802, whole entry: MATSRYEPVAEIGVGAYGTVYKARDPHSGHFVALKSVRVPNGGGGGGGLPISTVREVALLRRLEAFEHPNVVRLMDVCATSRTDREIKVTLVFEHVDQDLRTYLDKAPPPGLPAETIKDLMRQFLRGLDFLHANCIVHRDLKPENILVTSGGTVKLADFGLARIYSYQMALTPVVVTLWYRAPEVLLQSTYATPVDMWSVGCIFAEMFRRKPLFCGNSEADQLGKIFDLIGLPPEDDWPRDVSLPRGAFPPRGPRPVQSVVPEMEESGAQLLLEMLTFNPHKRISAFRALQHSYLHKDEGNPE
UniProt P06493, whole entry: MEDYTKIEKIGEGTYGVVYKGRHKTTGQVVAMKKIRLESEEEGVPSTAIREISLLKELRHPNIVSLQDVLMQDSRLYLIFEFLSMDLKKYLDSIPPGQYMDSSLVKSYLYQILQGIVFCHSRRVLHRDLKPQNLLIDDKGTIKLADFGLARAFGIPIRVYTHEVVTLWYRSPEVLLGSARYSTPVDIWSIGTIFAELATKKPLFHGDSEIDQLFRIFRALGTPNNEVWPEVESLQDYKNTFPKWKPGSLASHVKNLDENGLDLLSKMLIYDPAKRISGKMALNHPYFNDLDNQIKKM
UniProt P24385, whole entry partner: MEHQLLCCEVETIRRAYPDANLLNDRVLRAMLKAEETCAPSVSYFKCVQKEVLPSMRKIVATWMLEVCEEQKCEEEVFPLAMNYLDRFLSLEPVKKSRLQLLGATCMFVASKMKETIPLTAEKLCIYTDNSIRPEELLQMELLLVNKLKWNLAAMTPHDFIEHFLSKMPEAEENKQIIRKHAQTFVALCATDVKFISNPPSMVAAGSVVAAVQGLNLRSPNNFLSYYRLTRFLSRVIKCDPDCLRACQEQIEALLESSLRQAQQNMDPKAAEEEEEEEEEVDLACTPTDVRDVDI
UniProt P14635, whole entry partner: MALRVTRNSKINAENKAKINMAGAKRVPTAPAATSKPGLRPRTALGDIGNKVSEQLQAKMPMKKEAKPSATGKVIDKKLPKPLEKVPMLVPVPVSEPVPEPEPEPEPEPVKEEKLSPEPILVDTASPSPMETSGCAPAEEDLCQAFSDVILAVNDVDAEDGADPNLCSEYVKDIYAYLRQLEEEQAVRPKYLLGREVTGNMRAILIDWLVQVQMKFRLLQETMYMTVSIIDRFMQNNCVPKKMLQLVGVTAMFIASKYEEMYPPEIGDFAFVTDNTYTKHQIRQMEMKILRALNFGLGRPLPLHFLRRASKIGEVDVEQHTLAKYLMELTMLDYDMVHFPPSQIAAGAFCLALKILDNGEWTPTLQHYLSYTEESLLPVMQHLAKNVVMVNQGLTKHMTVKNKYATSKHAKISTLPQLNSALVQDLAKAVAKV

Legend:
cyclin D1/cdk 4 enzyme = cyclin D1/cdk 4 enzyme (Homo sapiens, UniProt P11802); assay: CDK4 ELISA kinase assay (phospho-Rb ser 795 detection); format: biochemical
cyclin E/CDK2 enzyme = cyclin E/CDK2 enzyme (Homo sapiens, UniProt P24941); assay: CDK2 ELISA kinase assay (phospho-Rb ser 795 detection); format: biochemical
cyclin B/CDK1 enzyme = cyclin B/CDK1 enzyme (Homo sapiens, UniProt P06493); assay: CDK1 ELISA kinase assay (phospho-Rb ser 795 detection); format: biochemical
BT474 = assay: Cytotoxicity assay (SRB), BT474; conditions: read-out: In Vitro Cellular Activity IC50 BT474, BT474 cells, 6 days
HCT-116 = assay: Cytotoxicity assay (SRB), HCT-116; format: cell-based
LoVo = assay: Cytotoxicity assay (SRB), LoVo
MCF-7 = assay: Cytotoxicity assay (SRB), MCF-7; format: cell-based
[1] = read-out: In Vitro Cellular Activity IC50 HCT116, HCT116 cells, three days
[2] = read-out: In Vitro Cellular Activity IC50 LOVO, LoVo cells, three days
[3] = read-out: In Vitro Cellular Activity IC50 MCF-7, MCF-7 cells, three days

| SMILES | IC50 (cyclin D1/cdk 4 enzyme; read-out: CDK4 IC50, In Vitro Enzyme Assay, cyclin D1/cdk 4) | IC50 (cyclin E/CDK2 enzyme; read-out: CDK2 IC50, In Vitro Enzyme Assay, cyclin E/CDK2) | IC50 (cyclin B/CDK1 enzyme; read-out: CDK1 IC50, In Vitro Enzyme Assay, cyclin B/CDK1) | IC50 (BT474) | IC50 (HCT-116; read-out: In Vitro Cellular Activity IC50 HCT116, HCT116 cells, 3 days) | IC50 (LoVo; read-out: In Vitro Cellular Activity IC50 LOVO, LoVo cells, 3 days) | IC50 (MCF-7; read-out: In Vitro Cellular Activity IC50 MCF-7, MCF-7 cells, 3 days) | IC50 (cyclin D1/cdk 4 enzyme; read-out: CDK4 IC50, In Vitro Enzyme Assays, 200 μM ATP) | IC50 (cyclin E/CDK2 enzyme; read-out: CDK2 IC50, In Vitro Enzyme Assays) | IC50 (cyclin B/CDK1 enzyme; read-out: CDK1 IC50, In Vitro Enzyme Assays) | IC50 (HCT-116; [1]) | IC50 (LoVo; [2]) | IC50 (MCF-7; [3]) |
| --- | --- | --- | --- | --- | --- | --- | --- | --- | --- | --- | --- | --- | --- |
| C[C@@H]1CN(c2ccc(N/C=C3\C(=O)NC(=O)c4ccc(-c5ccc(CO)o5)cc43)cn2)C[C@H](C)N1 | 0.44 µM | > 50 µM | > 50 µM | 11.1 µM | 5.72 µM | 9.19 µM | 8.91 µM |  |  |  |  |  |  |
| Cc1cc(N/C=C2\C(=O)NC(=O)c3ccc(Br)cc32)cnc1C1C[C@@H](C)N[C@@H](C)C1 (stereo partly drawn) |  |  |  | 5.6 µM |  |  |  | 3.1 µM | > 50 µM | > 50 µM | 3.5 µM | 6.5 µM | 5.6 µM |
| CC(=O)Nc1ccc2c(c1)/C(=C/Nc1ccc(N3CCN(C)CC3)cc1)C(=O)NC2=O |  |  |  | 17 µM |  |  |  |  |  |  | 6.6 µM | 13 µM | 11 µM |
